# Measurements taken from ChEMBL document CHEMBL1129620 (J Med Chem, 1996).
# Tested on: Y-1
# Experiment: Stimulation of steroid (pregnenolone) biosynthesis in mouse Y-1 adrenocortical cells at 40 uM
row,SMILES,Production
1,Cc1ccc(C2=C(OC(=O)N(C)C)c3cccn3-c3ccccc3O2)cc1,38.4 ng 2hr-1
2,CN(C)C(=O)OC1=C(c2ccccc2)Oc2ccccc2-n2cccc21,33.7 ng 2hr-1
